The subject of test [1] is BaF3 (EGFR L858R/T790M/C797S). The test can be described thus: Cell proliferation IC50 assay (Cell Titer GLO), BaF3 LTC cells. The test is classed as cell-based, mouse.
The subject of test [2] is A431. The test can be described thus: Cell proliferation IC50 assay (Cell Titer GLO), A431 cells. The test is classed as cell-based. The note with it: read-out: A431 IC50, Table 6, A431, 72 h. For orientation: ATP-based viability assays read luminescence as a measure of living cells.
Test [3] has as its target BaF3 (EGFR Del19/C797S) (Homo sapiens, UniProt P00533, C797S, cells depend on it, form not given). The test can be described thus: Cell proliferation IC50 assay (Cell Titer GLO), BaF3 DC cells. The test is classed as cell-based, mouse.
Test [4] has as its system BaF3 (EGFR WT). The test can be described thus: Cell proliferation IC50 assay (Cell Titer GLO), BaF3 WT cells. The test is classed as cell-based, mouse.
The test system of test [5] is BaF3 (EGFR Del19/T790M/C797S). The test can be described thus: Cell proliferation IC50 assay (Cell Titer GLO), BaF3 DTC cells. Conditions: read-out: DTC IC50, Table 6, 72 h, tested form: HCl. The test is classed as cell-based, mouse.
The target of test [6] is BaF3 (EGFR L858R/C797S) (Homo sapiens, UniProt P00533, C797S/L858R, cells depend on it). The test can be described thus: Cell proliferation IC50 assay (Cell Titer GLO), BaF3 LC cells. It is filed as cell-based, mouse. Conditions: read-out: LC IC50, Table 7, 72 h, tested form: HCl.
Test [7] relates to human EGFR-DC. The test can be described thus: EGFR protein abundance assay (Western blotting), EGFR-DC. The note with it: Ba/F3 cells expressing human EGFR-DC, 24 h, Western blot, tested form: HCl. In general terms: A western blot detects proteins with antibodies after separation by electrophoresis.
The target in test [8] is BaF3 (EGFR Del19) (Homo sapiens, UniProt P00533, cells depend on it, form not given). The test can be described thus: Cell proliferation IC50 assay (Cell Titer GLO), BaF3 D cells. It is filed as cell-based, mouse. The note with it: read-out: D IC50, Table 7, 72 h, tested form: HCl.
Test [9] concerns human EGFR-DTC. The test can be described thus: EGFR protein abundance assay (Western blotting), EGFR-DTC. The note with it: Ba/F3 cells expressing human EGFR-DTC, 24 h, Western blot, tested form: HCl.
Test [10] deals with human EGFR-LTC (Homo sapiens, UniProt P00533, C797S/L858R/T790M). The test can be described thus: EGFR protein abundance assay (Western blotting), EGFR-LTC. Conditions: Ba/F3 cells expressing human EGFR-LTC, 24 h, Western blot, tested form: HCl.
Test [11] has as its system LT. The test can be described thus: Cell proliferation IC50 assay (Cell Titer GLO), LT cells. Conditions: read-out: LT IC50; Table 7; LT cells (BaF3 with EGFR mutant), 72 h; tested form: HCl.
For test [12], the target named is BaF3 (EGFR L858R) (Homo sapiens, UniProt P00533, L858R, cells depend on it). The test can be described thus: Cell proliferation IC50 assay (Cell Titer GLO), BaF3 L cells. The test is classed as cell-based, mouse. The note with it: read-out: L IC50, Table 7, 72 h, tested form: HCl.
The test system of test [13] is DT. The test can be described thus: Cell proliferation IC50 assay (Cell Titer GLO), DT cells. The note with it: read-out: DT IC50; Table 7; DT cells (BaF3 with EGFR mutant), 72 h; tested form: HCl.
Setting [14] is: read-out: LTC IC50, Table 6, 72 h, tested form: HCl.
Where [15] appears, read: read-out: DC IC50, Table 6, 72 h, tested form: HCl.
[16] abbreviates: read-out: WT IC50, Table 6, 10 ng/ml EGF, 72 h, tested form: HCl.
The mark [17] stands for this setting: read-out: LTC IC50, Table 6, 72 h.
[18] abbreviates: read-out: DC IC50, Table 6, 72 h.
Where [19] appears, read: read-out: WT IC50, Table 6, 10 ng/ml EGF, 72 h.

Chains of the proteins cited; added tags and fusions are not shown. A line that says so, or that is headed by a name, gives the form on record, which may keep a tag or linker. Residues count along the entry.
UniProt P00533, with tags, fused parts or gaps C797S/DEL746-750: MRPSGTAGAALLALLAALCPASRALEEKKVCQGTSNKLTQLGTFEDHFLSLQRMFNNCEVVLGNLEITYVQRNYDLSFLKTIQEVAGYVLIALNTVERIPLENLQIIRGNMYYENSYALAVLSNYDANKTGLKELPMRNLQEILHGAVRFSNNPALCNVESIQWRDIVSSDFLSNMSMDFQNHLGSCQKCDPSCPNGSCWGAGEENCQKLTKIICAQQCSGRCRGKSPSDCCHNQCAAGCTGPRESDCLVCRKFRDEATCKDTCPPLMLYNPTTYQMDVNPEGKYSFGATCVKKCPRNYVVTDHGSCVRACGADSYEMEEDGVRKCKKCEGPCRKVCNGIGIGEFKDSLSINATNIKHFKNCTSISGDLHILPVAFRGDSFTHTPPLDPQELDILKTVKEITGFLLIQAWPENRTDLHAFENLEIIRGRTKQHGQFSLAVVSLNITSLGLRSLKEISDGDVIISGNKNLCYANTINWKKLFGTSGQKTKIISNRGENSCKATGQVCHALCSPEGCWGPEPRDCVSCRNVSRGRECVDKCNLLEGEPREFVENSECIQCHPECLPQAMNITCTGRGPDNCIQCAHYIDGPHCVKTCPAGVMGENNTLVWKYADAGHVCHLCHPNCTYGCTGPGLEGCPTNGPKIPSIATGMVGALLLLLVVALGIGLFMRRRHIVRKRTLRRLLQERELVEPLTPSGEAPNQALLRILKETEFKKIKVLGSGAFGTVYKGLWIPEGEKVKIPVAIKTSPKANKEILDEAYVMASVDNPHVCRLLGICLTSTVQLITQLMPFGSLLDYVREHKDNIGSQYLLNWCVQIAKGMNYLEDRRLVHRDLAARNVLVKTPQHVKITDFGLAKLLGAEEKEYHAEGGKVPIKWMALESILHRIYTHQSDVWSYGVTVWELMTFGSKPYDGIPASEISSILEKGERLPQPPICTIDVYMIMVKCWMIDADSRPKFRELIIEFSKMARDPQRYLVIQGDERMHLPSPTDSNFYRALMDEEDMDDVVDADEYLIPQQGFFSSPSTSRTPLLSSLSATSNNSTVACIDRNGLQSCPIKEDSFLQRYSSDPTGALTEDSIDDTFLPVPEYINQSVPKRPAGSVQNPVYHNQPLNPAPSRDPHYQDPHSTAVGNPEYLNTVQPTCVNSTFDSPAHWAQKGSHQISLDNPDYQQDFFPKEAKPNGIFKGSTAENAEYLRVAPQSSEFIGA
UniProt P00533, 25-1210 T790M/C797S/L858R limits assumed: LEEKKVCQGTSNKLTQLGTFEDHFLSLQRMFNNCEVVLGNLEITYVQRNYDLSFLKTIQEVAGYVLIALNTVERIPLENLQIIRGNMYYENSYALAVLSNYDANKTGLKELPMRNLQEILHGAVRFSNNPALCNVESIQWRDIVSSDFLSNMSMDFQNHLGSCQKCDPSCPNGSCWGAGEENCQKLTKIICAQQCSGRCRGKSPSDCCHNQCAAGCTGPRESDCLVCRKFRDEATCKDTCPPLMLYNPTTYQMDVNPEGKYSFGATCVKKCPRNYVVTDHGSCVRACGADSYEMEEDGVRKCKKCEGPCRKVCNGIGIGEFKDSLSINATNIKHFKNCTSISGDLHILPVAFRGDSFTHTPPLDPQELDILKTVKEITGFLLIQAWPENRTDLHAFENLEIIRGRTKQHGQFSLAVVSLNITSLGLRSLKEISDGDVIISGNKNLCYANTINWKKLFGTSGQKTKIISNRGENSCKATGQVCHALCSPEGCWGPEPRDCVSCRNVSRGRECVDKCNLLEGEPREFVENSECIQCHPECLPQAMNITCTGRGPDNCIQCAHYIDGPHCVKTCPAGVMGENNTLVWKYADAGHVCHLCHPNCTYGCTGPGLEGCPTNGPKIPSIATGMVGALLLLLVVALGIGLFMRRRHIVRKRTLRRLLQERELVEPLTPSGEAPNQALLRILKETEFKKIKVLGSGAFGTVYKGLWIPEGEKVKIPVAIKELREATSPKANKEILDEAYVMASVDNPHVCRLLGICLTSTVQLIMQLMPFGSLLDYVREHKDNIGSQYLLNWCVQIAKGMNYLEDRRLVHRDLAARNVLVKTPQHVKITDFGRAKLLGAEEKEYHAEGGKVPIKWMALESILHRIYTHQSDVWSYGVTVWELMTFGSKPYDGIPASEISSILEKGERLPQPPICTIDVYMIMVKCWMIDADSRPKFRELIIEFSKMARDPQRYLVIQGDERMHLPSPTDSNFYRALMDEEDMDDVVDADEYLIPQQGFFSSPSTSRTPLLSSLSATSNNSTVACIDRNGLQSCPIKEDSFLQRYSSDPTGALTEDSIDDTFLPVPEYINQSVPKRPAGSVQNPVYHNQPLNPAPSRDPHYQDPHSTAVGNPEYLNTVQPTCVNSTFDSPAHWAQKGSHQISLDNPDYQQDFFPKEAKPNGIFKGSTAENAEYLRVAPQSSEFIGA
UniProt P00533, whole entry L858R: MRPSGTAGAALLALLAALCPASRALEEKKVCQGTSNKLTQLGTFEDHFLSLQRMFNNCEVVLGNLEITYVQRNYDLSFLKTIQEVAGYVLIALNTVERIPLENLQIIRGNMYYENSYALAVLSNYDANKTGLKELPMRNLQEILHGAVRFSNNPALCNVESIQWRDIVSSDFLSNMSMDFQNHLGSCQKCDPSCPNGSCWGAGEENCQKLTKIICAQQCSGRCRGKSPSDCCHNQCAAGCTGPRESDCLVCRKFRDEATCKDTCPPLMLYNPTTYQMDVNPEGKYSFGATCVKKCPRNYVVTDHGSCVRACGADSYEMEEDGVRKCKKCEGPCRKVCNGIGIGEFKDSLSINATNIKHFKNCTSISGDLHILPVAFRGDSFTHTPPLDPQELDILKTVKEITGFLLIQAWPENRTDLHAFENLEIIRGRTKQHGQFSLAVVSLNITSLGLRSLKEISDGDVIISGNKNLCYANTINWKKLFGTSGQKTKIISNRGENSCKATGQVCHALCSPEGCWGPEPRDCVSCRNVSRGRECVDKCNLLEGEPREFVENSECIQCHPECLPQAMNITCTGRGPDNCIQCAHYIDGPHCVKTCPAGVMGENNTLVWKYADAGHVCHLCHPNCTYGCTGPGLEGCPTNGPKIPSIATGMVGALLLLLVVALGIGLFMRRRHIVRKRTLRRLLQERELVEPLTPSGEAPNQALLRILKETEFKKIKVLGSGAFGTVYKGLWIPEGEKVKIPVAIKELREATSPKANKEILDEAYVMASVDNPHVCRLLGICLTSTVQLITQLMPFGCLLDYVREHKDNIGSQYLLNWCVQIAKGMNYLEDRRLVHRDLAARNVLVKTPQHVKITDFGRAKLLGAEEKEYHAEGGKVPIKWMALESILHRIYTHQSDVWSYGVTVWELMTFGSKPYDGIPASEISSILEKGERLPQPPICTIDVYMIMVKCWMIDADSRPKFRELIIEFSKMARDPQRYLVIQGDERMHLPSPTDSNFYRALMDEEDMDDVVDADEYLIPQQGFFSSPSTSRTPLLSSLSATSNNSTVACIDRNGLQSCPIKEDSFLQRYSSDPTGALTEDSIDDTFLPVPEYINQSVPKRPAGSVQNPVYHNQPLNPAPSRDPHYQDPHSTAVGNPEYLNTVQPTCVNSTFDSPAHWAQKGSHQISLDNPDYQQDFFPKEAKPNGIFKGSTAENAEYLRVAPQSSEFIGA
UniProt P00533, whole entry C797S/L858R: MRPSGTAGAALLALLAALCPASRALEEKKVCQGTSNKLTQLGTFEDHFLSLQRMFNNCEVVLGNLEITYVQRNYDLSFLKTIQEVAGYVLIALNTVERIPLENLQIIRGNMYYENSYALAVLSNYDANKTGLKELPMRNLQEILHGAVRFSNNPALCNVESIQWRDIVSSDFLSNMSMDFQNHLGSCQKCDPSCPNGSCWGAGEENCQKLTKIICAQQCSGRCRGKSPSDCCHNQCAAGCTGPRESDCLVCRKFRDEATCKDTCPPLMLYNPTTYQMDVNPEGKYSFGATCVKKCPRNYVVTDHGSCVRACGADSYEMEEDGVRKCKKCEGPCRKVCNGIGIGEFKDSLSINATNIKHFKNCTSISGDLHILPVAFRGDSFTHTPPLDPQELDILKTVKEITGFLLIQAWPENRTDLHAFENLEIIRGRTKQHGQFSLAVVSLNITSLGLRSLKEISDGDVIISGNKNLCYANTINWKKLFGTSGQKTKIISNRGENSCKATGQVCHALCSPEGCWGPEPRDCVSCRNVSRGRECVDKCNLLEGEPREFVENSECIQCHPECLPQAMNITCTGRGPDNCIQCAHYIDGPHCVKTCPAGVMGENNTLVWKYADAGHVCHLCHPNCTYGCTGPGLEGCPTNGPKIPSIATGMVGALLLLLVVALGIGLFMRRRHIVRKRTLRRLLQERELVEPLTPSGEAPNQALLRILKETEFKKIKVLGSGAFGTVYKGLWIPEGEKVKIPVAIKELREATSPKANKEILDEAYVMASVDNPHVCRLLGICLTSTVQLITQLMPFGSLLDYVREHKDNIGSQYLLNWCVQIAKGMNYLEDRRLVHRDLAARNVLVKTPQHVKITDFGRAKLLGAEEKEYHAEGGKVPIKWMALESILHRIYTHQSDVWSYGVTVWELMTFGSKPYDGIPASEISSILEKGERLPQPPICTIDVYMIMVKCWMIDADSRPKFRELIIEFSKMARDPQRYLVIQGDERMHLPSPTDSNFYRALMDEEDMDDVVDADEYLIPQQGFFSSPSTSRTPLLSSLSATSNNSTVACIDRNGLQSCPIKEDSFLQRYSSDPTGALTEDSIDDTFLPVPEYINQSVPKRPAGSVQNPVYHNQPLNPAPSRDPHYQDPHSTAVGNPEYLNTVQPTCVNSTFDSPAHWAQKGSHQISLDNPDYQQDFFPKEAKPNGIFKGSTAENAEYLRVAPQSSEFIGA
UniProt P00533, with tags, fused parts or gaps DEL746-750: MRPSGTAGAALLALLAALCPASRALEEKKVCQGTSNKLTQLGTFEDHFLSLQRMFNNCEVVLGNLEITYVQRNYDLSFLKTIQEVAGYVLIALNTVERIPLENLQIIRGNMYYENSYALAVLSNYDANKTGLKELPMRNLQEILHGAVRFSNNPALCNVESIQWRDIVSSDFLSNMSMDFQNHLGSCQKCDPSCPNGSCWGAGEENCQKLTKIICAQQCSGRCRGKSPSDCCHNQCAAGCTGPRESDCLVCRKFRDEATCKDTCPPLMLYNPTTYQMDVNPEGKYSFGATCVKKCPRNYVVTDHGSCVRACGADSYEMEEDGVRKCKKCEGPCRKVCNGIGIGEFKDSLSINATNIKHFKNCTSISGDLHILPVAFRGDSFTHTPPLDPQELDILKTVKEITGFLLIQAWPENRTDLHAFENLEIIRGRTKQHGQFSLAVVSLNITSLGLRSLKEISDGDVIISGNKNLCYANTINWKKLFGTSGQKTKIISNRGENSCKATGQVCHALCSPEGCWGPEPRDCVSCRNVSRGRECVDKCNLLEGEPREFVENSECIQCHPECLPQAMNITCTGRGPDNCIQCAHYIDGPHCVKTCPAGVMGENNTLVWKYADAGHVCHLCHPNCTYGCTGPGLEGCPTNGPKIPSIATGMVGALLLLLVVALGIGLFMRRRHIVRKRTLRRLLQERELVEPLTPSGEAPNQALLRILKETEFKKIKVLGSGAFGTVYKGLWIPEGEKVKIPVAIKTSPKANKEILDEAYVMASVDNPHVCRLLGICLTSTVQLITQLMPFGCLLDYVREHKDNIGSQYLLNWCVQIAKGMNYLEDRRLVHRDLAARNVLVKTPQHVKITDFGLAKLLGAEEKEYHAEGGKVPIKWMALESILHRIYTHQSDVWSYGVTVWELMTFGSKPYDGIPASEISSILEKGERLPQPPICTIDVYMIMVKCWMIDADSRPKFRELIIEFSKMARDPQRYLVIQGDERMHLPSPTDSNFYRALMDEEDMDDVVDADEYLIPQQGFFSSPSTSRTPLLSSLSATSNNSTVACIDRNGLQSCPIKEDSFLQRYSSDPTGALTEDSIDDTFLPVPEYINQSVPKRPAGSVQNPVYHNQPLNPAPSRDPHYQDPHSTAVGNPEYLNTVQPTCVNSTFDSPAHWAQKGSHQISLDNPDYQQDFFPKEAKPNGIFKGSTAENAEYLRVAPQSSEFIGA

SMILES strings stand for the structures. Where two headings read alike, the source gives them in different places.

For the molecule `CCc1cc(Nc2ncc(Cl)c(Nc3ccccc3P(C)(C)=O)n2)c(OC)cc1N1CCC(N2CCC3(CC(Oc4cccc5c4CN(C4CCC(=O)NC4=O)C5=O)C3)C2)CC1` (single isomer, unassigned) [E184], the values for the IC50 in [1] (setting [14]), in test [2] (tested form: HCl) and in test [4] (setting [16]) were 128 nM, 1780 nM and 1030 nM, respectively. The GI50 in test [3] (setting [15]) was 20.5 nM.
With `CCc1cc(Nc2ncc(Cl)c(Nc3ccccc3P(C)(C)=O)n2)c(OC)cc1N1CCC(N2CC[C@]3(C2)C[C@@H](Oc2cccc4c2CN(C2CCC(=O)NC2=O)C4=O)C3)CC1` (stereo partly drawn), the IC50 in test [1] (setting [14]) was 28.2 nM; in test [2] (tested form: HCl), 1690 nM; in [5] it was 3.98 nM; in test [4] (setting [16]) it was 1470 nM; in [11], 2.8 nM; in test [13], 3 nM. In addition, the GI50 in test [6] came to 3.6 nM; in test [8] it was 0.3 nM; in test [3] (read-out: DC IC50, Table 7, 72 h, tested form: HCl) it was 0.4 nM; in [12], 1.4 nM. Also, the “EGFR-DC Dmax” value in test [7] worked out at 97%. Besides, the DC50 was 1.12 nM in [7] (read-out: EGFR-DC DC50), 1.06 nM in test [9] (read-out: EGFR-DTC DC50) and 2.6 nM in [10] (read-out: EGFR-LTC DC50). The “EGFR-DTC Dmax” value in test [9] was found to be 97%. The “EGFR-LTC Dmax” value in test [10] was 95%.
On to `CCc1cc(Nc2ncc(-c3cnn(C)c3)c(Nc3ccccc3P(C)(C)=O)n2)c(OC)cc1N1CCN(C2CCN(C(C)(C)COc3cc4c(cc3F)C(=O)N(C3CCC(=O)NC3=O)C4)CC2)CC1` (stereo not drawn), for which the results for the IC50 in test [1] (setting [17]), in test [2] and in test [4] (setting [19]) were more than 4000 nM, more than 4000 nM and 1360 nM, respectively. Moreover, the GI50 in test [3] (setting [18]) was determined as 8.6 nM.
`CCc1cc(Nc2ncc(Cl)c(Nc3ccccc3P(C)(C)=O)n2)c(OC)cc1N1CCC(N2CCC3(CC(Oc4cccc5c4CN(C4CCC(=O)NC4=O)C5=O)C3)C2)CC1` (single isomer, unassigned) [E183]: the IC50 worked out at 9.6 nM in [1] (setting [14]), 1540 nM in test [2] (tested form: HCl), 3.16 nM in test [5] and 1010 nM in [4] (setting [16]). For the same molecule, in [3] (setting [15]), the GI50 came out at 1 nM.
Regarding `CCc1cc(Nc2ncc(Cl)c(Nc3ccccc3P(C)(C)=O)n2)c(OC)cc1N1CCC(N2CCN(CCOc3ccc4c(c3)CN(C3CCC(=O)NC3=O)C4=O)CC2)CC1` (stereo not drawn), the IC50 in test [1] (setting [14]) came out at 70.6 nM; in test [2] (tested form: HCl), 1100 nM; in [4] (setting [16]) it was 2500 nM. For the same molecule, the GI50 in [3] (setting [15]) amounted to 13.7 nM.
For `CCc1cc(Nc2ncc(-c3cnn(C)c3)c(Nc3ccccc3P(C)(C)=O)n2)c(OC)cc1N1CCC(N2CCN(CCOc3ccc4c(c3)CN(C3CCC(=O)NC3=O)C4=O)CC2)CC1` (stereo not drawn) the same measures were more than 4000 nM, 1220 nM, 506 nM and 1.1 nM.
Regarding `CCc1cc(Nc2ncc(Cl)c(Nc3ccccc3P(C)(C)=O)n2)c(OC)cc1N1CCC(N2CCN(CCCCCc3ccc4c(c3)c(N3CCC(=O)NC3=O)nn4C)CC2)CC1`, the IC50 in test [1] (setting [14]) came out at 921 nM; in [2] (tested form: HCl), 2090 nM; in [4] (setting [16]), 3980 nM. Moreover, in [3] (setting [15]), the GI50 was found to be 122 nM.
As for `CCc1cc(Nc2ncc(-n3cc(C)nn3)c(Nc3ccccc3P(C)(C)=O)n2)c(OC)cc1N1CCC(N2CCN(CCOc3ccc4c(c3)CN(C3CCC(=O)NC3=O)C4=O)CC2)CC1` (stereo not drawn), the IC50 in test [1] (setting [17]) was more than 4000 nM; in [2], more than 4000 nM; in [4] (setting [19]), 829 nM. Besides, the GI50 in [3] (setting [18]) was 0.9 nM.
As to `CCc1cc(Nc2ncc(Cl)c(Nc3ccccc3P(C)(C)=O)n2)c(OC)cc1N1CCC(N2CC[C@]3(C2)C[C@H](Oc2cccc4c2CN(C2CCC(=O)NC2=O)C4=O)C3)CC1` (stereo partly drawn), the IC50 is 110 nM in [1] (setting [14]), 1090 nM in test [2] (tested form: HCl) and 2650 nM in [4] (setting [16]). Besides, the GI50 in [3] (setting [15]) turned out to be 3.4 nM.
As to `CCc1cc(Nc2ncc(Cl)c(Nc3ccccc3P(C)(C)=O)n2)c(OC)cc1N1CCC(N2CCC3(CC(Oc4cccc5c4CN(C4CCC(=O)NC4=O)C5=O)C3)C2)CC1` (single isomer, unassigned) [E182], the IC50 in [1] (setting [14]) worked out at 41 nM; in [2] (tested form: HCl), 1330 nM; in [5], 3.87 nM; in test [4] (setting [16]), 1080 nM. The GI50 in test [3] (setting [15]) was 6 nM.
Take `CCOc1cc(N2CCC(N3CCN(CCC#Cc4cccc5c4CN(C4CCC(=O)NC4=O)C5=O)CC3)CC2)c(CC)cc1Nc1ncc(Cl)c(Nc2ccccc2P(C)(C)=O)n1` (stereo not drawn): the values for the IC50 in [1] (setting [14]), in [2] (tested form: HCl) and in test [4] (setting [16]) were 53.1 nM, 3770 nM and more than 4000 nM, respectively. For the same molecule, the GI50 in test [3] (setting [15]) came to 10.1 nM.
For `CCc1cc(Nc2ncc(Cl)c(Nc3ccccc3P(C)(C)=O)n2)c(OC)cc1N1CCC(N2CCN(CCCCOc3ccc4c(c3)CN(C3CCC(=O)NC3=O)C4=O)CC2)CC1` (stereo not drawn), the IC50 came to 22.8 nM in test [1] (setting [14]), 1020 nM in [2] (tested form: HCl), 15.5 nM in test [5] and 1020 nM in [4] (setting [16]). For the same molecule, the GI50 in [3] (setting [15]) worked out at 10 nM.
On to `CCc1cc(Nc2ncc(Cl)c(Nc3ccccc3P(C)(C)=O)n2)c(OC)cc1N1CCC(N2CCN(CCCCOc3cc(F)cc4c3CN(C3CCC(=O)NC3=O)C4=O)CC2)CC1` (stereo not drawn), for which the IC50 in [1] (read-out: LTC IC50, Table 6, 72 h, tested form: formate) came out at 25.5 nM; in test [2] (tested form: formate), 1060 nM; in test [4] (read-out: WT IC50, Table 6, 10 ng/ml EGF, 72 h, tested form: formate), 345 nM. The GI50 in test [3] (read-out: DC IC50, Table 6, 72 h, tested form: formate) is 3.3 nM.
For `CCc1cc(Nc2ncc(Cl)c(Nc3ccccc3P(C)(C)=O)n2)c(OC)cc1N1CCC(N2CCC3(CC(Oc4cccc5c4CN(C4CCC(=O)NC4=O)C5=O)C3)C2)CC1` (single isomer, unassigned) [E181], the IC50 in test [1] (setting [14]) is 6.3 nM; in test [2] (tested form: HCl) it was 1130 nM; in [5] it was 1.76 nM; in test [4] (setting [16]), 1110 nM. In [3] (setting [15]), the GI50 was found to be 0.7 nM.

Source of the values: patent publication US20240408216A1, “PROTEIN INHIBITOR OR DEGRADING AGENT, PHARMACEUTICAL COMPOSITION CONTAINING SAME AND PHARMACEUTICAL USE” (JING MEDICINE TECHNOLOGY (SHANGHAI) LTD., priority 2021, published 2024).
